Data reported in patent publication US20090004101A1, “Method and Means for Enhanced Pulmonary Drug Delivery” (UNIVERSITY COLLEGE CARDIFF CONSULTANTS LIMITED, priority 2004, published 2009).

How the values were obtained:
[1] = Pulmonary absorption of human insulin co-administered intratracheally with P2Y receptor agonists to anesthetized rabbits (plasma insulin by radioimmunoassay); conditions: insulin 10 U/kg intratracheal alone, rabbit, mean±SD
Protocol: Briefly, New Zealand white rabbits were anesthetized with Hypnovel (Roche, Welwyn Garden City, UK), 0.3 mg/kg i.v. via cannula in the ear, and Hypnorrn (Janssen Animal Health, Grove, Oxford, UK), 0.1 mg/kg via intramuscular injection. Once intubated with a polyethylene endotracheal tube (i.d. 4 mm, o.d. 5 mm; Portex, UK) coated with a layer of xylocalne gel (Astra Pharmaceuticals, Kings Langley, UK), a second, smaller polyethylene dosing tube was inserted inside the endotracheal tube to the point of the bifurcation of the trachea.

[2] = man, pulmonary delivery; cited from earlier work

Substance: Insulin
- Cmax of insulin ([1]; n=4 (UTP study)): 440 ± 44.6 μU/mL
- F (bioavailable fraction) of insulin ([1]; n=4 (UTP study)): 4.48 ± 0.13%
- t1/2 of insulin ([1]; n=4 (UTP study)): 44.9 ± 11.51 min
- Cmax of insulin ([1]; n=4 (Up4U study)): 527 ± 42.2 μU/mL
- F (bioavailable fraction) of insulin ([1]; n=4 (Up4U study)): 3.75 ± 0.84%
- t1/2 of insulin ([1]; n=4 (Up4U study)): 35.4 ± 3.41 min
- Insulin deposited in the lungs that reaches the systemic circulation [2]: 20-46%
